The nature of assay [1]: NCI Yeast Anticancer Drug Screen. Data for the rad50 strain (AID 155).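 Further: 0% = growth of vehicle-only cultures of the same strain.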 As to conditions: S. cerevisiae rad50 strain growth inhibition, active compounds read high.
The nature of assay [2]: NCI Yeast Anticancer Drug Screen. Data for the mec2-1 strain (AID 157). As to conditions: S. cerevisiae mec2-1 strain, active compounds read high.
Assay [3] can be described thus: NCI Yeast Anticancer Drug Screen. Data for the sgs1 mgt1 strain (AID 161).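 Further: 0% = growth of cultures given vehicle only.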 As to conditions: S. cerevisiae sgs1 mgt1 strain, active compounds read high.
Assay [4] in a line: NCI Yeast Anticancer Drug Screen. Data for the cln2 rad14 strain (AID 165).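 Further: 0% = growth equal to vehicle treated cultures.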 Particulars: S. cerevisiae cln2 rad14 strain, active compounds read high.
A short description of assay [5]: NCI Yeast Anticancer Drug Screen. Data for the bub3 strain (AID 167). Particulars: S. cerevisiae bub3 mutant strain, active compounds read high.
Assay [6] is described as follows: NCI Yeast Anticancer Drug Screen. Data for the mlh1 rad18 strain (AID 175). Particulars: S. cerevisiae mlh1 rad18 strain growth inhibition, active compounds read high.
Setting [7] is: at 5.0 µM (retest, dose inferred, filed as 0.5).
Where [8] appears, read: at 50.0 µM (retest, dose inferred, filed as 5.0).

Several values for one entry are separate records, joined by “and”; a condition that tells them apart may be missing. Equal entries are not always repeated. This is a selection; strong and weak results do not stand in their true shares. Where a structure was tested more than once in an assay, its records may differ in their call. Activity calls are given as the source filed them. No stated cut-off is given here; in the data, active means growth inhibition above about 70%; inactive means the rest.

For the compound `NC(Cc1cnc[nH]1)C(=O)O` (stereo unspecified), the growth inhibition in assay [1] (at 1.2 µM) is inactive: -55%; in assay [1] (at 3.7 µM) it was inactive: 51%; in assay [1] (setting [7]), inactive: 0% and inactive: -2%; in assay [1] (at 11.0 µM), active: 97%; in assay [1] (at 33.0 µM), active: 98%; in assay [1] (at 100.0 µM), active: 99%. Besides, the growth inhibition was inactive: -2% in assay [2] (at 1.2 µM); inactive: 0% in assay [2] (at 3.7 µM); active: 75% in assay [2] (at 11.0 µM); active: 97% in assay [2] (at 33.0 µM); active: 99% in assay [2] (at 100.0 µM); inactive: 0% [middle of 4 runs] in assay [3] (setting [7]). Also, the growth inhibition in assay [4] (setting [7]) is inactive: 1% [middle of 5 runs]; in assay [5] (at 1.2 µM), inactive: 1%; in assay [5] (at 3.7 µM), inactive: 34%; in assay [5] (setting [7]) it was inactive: -3% [middle of 5 runs]; in assay [5] (at 11.0 µM), active: 95%; in assay [5] (at 33.0 µM) it was active: 98%. Moreover, the growth inhibition in assay [5] (at 100.0 µM) is active: 99%; in assay [6] (setting [7]) it was inactive: 1% [middle of 5 runs].

On to `C[N+]1(CCCCCCCC[N+]2(C)CCCCCCC2)CCCCCCC1`, for which the growth inhibition in assay [1] (setting [7]) was inactive: -14%; in assay [1] (setting [8]), inactive: -15%; in assay [1] (at 50.0 µM), inactive: 41.5%; in assay [2] (setting [7]), inactive: 4%; in assay [2] (setting [8]), inactive: -12%; in assay [2] (at 50.0 µM), inactive: 25.1%. Further, the growth inhibition was inactive: -1% in assay [3] (setting [7]); inactive: -2% in assay [3] (setting [8]); inactive: 44.6% in assay [3] (at 50.0 µM); inactive: 9% in assay [4] (setting [7]); inactive: 17% in assay [4] (setting [8]); inactive: -4.95% in assay [4] (at 50.0 µM). Moreover, the growth inhibition is inactive: -10% in assay [5] (setting [7]); inactive: 2% in assay [5] (setting [8]); inactive: 48.8% in assay [5] (at 50.0 µM); inactive: 2% in assay [6] (setting [7]); inactive: 14% in assay [6] (setting [8]); inactive: 44.7% in assay [6] (at 50.0 µM).

Take `O=[N+]([O-])c1ccc(N/N=C(/C=N/Nc2ccc([N+](=O)[O-])cc2[N+](=O)[O-])C(O)C(O)CO)c([N+](=O)[O-])c1` (stereo unspecified): the growth inhibition was inactive: 5% in assay [1] (setting [7]); inactive: 15% in assay [1] (setting [8]); inactive: 29.9% in assay [1] (at 50.0 µM); inactive: 10% in assay [2] (setting [7]); inactive: 33% in assay [2] (setting [8]); inactive: 18.2% in assay [2] (at 50.0 µM). Moreover, the growth inhibition in assay [3] (setting [7]) is inactive: -13%; in assay [3] (setting [8]), inactive: 50%; in assay [3] (at 50.0 µM), active: 72.2%; in assay [4] (setting [7]), inactive: -12%; in assay [4] (setting [8]), inactive: -14%; in assay [4] (at 50.0 µM), inactive: 4.25%. In addition, the growth inhibition is inactive: -6% in assay [5] (setting [7]); inactive: 13% in assay [5] (setting [8]); inactive: 3.95% in assay [5] (at 50.0 µM); inactive: 9% in assay [6] (setting [7]); inactive: 60% in assay [6] (setting [8]); inactive: 36.9% in assay [6] (at 50.0 µM).

For `CCCCCCCCCC(CCCCCCCCC)NCC(C)O` (stereo unspecified), the growth inhibition was inactive: 4% in assay [1] (setting [7]); active: 100% in assay [1] (setting [8]); inactive: 29.1% in assay [1] (at 50.0 µM); inactive: 24% in assay [2] (setting [7]); active: 100% in assay [2] (setting [8]); inactive: 5.6% in assay [2] (at 50.0 µM). Moreover, the growth inhibition in assay [3] (setting [7]) is inactive: 15%; in assay [3] (setting [8]), active: 100%; in assay [3] (at 50.0 µM), inactive: 12.8%; in assay [4] (setting [7]), inactive: -2%; in assay [4] (setting [8]), active: 99%; in assay [4] (at 50.0 µM) it was inactive: 25.4%. Further, the growth inhibition in assay [5] (setting [7]) was inactive: 1%; in assay [5] (setting [8]), active: 99%; in assay [5] (at 50.0 µM) it was inactive: 3.55%; in assay [6] (setting [7]), inactive: 42%; in assay [6] (setting [8]), active: 100%; in assay [6] (at 50.0 µM), inactive: 14.8%.

On to `O=[N+]([O-])c1ccc([N+](=O)[O-])cc1`, for which the growth inhibition in assay [1] (setting [7]) is inactive: 34%; in assay [1] (setting [8]) it was active: 99%; in assay [1] (at 50.0 µM), active: 99.3%; in assay [2] (setting [7]), inactive: 33%; in assay [2] (setting [8]), active: 100%; in assay [2] (at 50.0 µM) it was active: 99.7%. Also, the growth inhibition is inactive: 51% in assay [3] (setting [7]); active: 99% in assay [3] (setting [8]); active: 99.5% in assay [3] (at 50.0 µM); inactive: 20% in assay [4] (setting [7]); active: 99% in assay [4] (setting [8]); active: 98.8% in assay [4] (at 50.0 µM). The growth inhibition in assay [5] (setting [7]) was inactive: 18%; in assay [5] (setting [8]), active: 99%; in assay [5] (at 50.0 µM), active: 99.2%; in assay [6] (setting [7]), inactive: 56%; in assay [6] (setting [8]), active: 99%; in assay [6] (at 50.0 µM), active: 99.5%.

Consider `Clc1ccc(SC(Cl)C(Cl)Cl)cc1` (stereo unspecified), for which the growth inhibition in assay [1] (setting [7]) was inactive: -3%; in assay [1] (setting [8]), active: 98%; in assay [1] (at 50.0 µM), active: 97.8%; in assay [2] (setting [7]) it was inactive: -2%; in assay [2] (setting [8]) it was active: 98%; in assay [2] (at 50.0 µM), active: 96.1%. Further, the growth inhibition in assay [3] (setting [7]) was inactive: 5%; in assay [3] (setting [8]), active: 98%; in assay [3] (at 50.0 µM) it was active: 97.3%; in assay [4] (setting [7]), inactive: -7%; in assay [4] (setting [8]), active: 91%; in assay [4] (at 50.0 µM), active: 70.5%. For the same compound, the growth inhibition in assay [5] (setting [7]) is inactive: -6%; in assay [5] (setting [8]) it was active: 98%; in assay [5] (at 50.0 µM), active: 96%; in assay [6] (setting [7]) it was inactive: -1%; in assay [6] (setting [8]) it was active: 98%; in assay [6] (at 50.0 µM), active: 96.2%.

Take `COc1cccc(C[N+](C)(CCCl)CCCl)c1[N+](=O)[O-]`: the growth inhibition in assay [1] (at 1.2 µM) was inactive: 14%; in assay [1] (at 3.7 µM), inactive: 9%; in assay [1] (setting [7]), inactive: 22%; in assay [1] (at 11.0 µM) it was inactive: 23%; in assay [1] (at 33.0 µM), active: 72%; in assay [1] (setting [8]), inactive: 62%. Also, the growth inhibition is active: 76% in assay [1] (at 50.0 µM); active: 93% in assay [1] (at 100.0 µM); inactive: 11% in assay [2] (at 1.2 µM); inactive: 9% in assay [2] (at 3.7 µM); inactive: -1% in assay [2] (setting [7]); inactive: 8% in assay [2] (at 11.0 µM). Moreover, the growth inhibition is inactive: 23% in assay [2] (at 33.0 µM); inactive: 22% in assay [2] (setting [8]); inactive: 30.2% in assay [2] (at 50.0 µM); inactive: 69% in assay [2] (at 100.0 µM); inactive: 5% in assay [3] (setting [7]); inactive: 14% in assay [3] (setting [8]). Besides, the growth inhibition was inactive: 34.1% in assay [3] (at 50.0 µM); inactive: -1% in assay [4] (setting [7]); inactive: 59% in assay [4] (setting [8]); inactive: 52.4% in assay [4] (at 50.0 µM); inactive: -4% in assay [5] (at 1.2 µM); inactive: -7% in assay [5] (at 3.7 µM). The growth inhibition in assay [5] (setting [7]) is inactive: 4%; in assay [5] (at 11.0 µM), inactive: -11%; in assay [5] (at 33.0 µM) it was inactive: -4%; in assay [5] (setting [8]), inactive: 9%; in assay [5] (at 50.0 µM), inactive: 2.1%; in assay [5] (at 100.0 µM), inactive: -3%. For the same compound, the growth inhibition in assay [6] (setting [7]) is inactive: 14%; in assay [6] (setting [8]), active: 73%; in assay [6] (at 50.0 µM) it was active: 74.3%.

As to `C[CH2][Sn]([C]#N)([CH2]C)[CH2]C`, the growth inhibition in assay [1] (setting [7]) is inactive: -108%; in assay [1] (setting [8]), active: 85%; in assay [1] (at 50.0 µM), active: 94.8%; in assay [2] (setting [7]), inactive: -43%; in assay [2] (setting [8]), active: 86%; in assay [2] (at 50.0 µM), active: 97.3%. Besides, the growth inhibition in assay [3] (setting [7]) is inactive: -51%; in assay [3] (setting [8]), active: 89%; in assay [3] (at 50.0 µM), active: 95%; in assay [4] (setting [7]), inactive: -60%; in assay [4] (setting [8]), inactive: 46%; in assay [4] (at 50.0 µM), active: 83.8%. The growth inhibition is inactive: -64% in assay [5] (setting [7]); active: 91% in assay [5] (setting [8]); active: 92.5% in assay [5] (at 50.0 µM); inactive: -117% in assay [6] (setting [7]); active: 85% in assay [6] (setting [8]); active: 95.2% in assay [6] (at 50.0 µM).

In the case of `CC(C)c1nc(Nc2ccccc2)n(P(=O)(N(C)C)N(C)C)n1`, the growth inhibition in assay [1] (at 1.2 µM) was inactive: 4%; in assay [1] (at 3.7 µM), inactive: 12%; in assay [1] (setting [7]), inactive: 44%; in assay [1] (at 11.0 µM), inactive: 3%; in assay [1] (at 33.0 µM) it was inactive: 67%; in assay [1] (setting [8]), active: 98%. The growth inhibition is active: 88.2% in assay [1] (at 50.0 µM); active: 93% in assay [1] (at 100.0 µM); inactive: 10% in assay [2] (at 1.2 µM); inactive: 9% in assay [2] (at 3.7 µM); inactive: 49% in assay [2] (setting [7]); inactive: 15% in assay [2] (at 11.0 µM). The growth inhibition is inactive: 50% in assay [2] (at 33.0 µM); active: 98% in assay [2] (setting [8]); inactive: 62.5% in assay [2] (at 50.0 µM); active: 93% in assay [2] (at 100.0 µM); inactive: -27% in assay [3] (setting [7]); inactive: 16% in assay [3] (setting [8]). The growth inhibition is inactive: 68% in assay [4] (setting [7]); inactive: 45% in assay [4] (setting [8]); inactive: 13% in assay [5] (at 1.2 µM); inactive: 23% in assay [5] (at 3.7 µM); inactive: 30% in assay [5] (setting [7]); inactive: 13% in assay [5] (at 11.0 µM). Further, the growth inhibition in assay [5] (at 33.0 µM) is inactive: 34%; in assay [5] (setting [8]) it was inactive: 25%; in assay [5] (at 100.0 µM) it was active: 91%; in assay [6] (setting [7]) it was inactive: 45%; in assay [6] (setting [8]) it was active: 99%; in assay [6] (at 50.0 µM) it was active: 81.9%.

The values above are taken from PubChem BioAssay (NCI).
